Reference: US20260248888A1, “PHARMACEUTICAL COMPOSITION FOR TREATING COLORECTAL CANCER AND USE THEREOF” (JENKEM TECHNOLOGY CO., LTD. (BEIJING), priority 2022, published 2026)
Several values for one entry are separate records, joined by “and”; a condition that tells them apart may be missing. Equal values may be shown once.

Tested on: CTLL-2 cells
Assay: CTLL-2 mouse T lymphocyte proliferation in vitro (MTT)
Assay type: cell-based
Details: for Absorbance difference at wavelength of 570 nm-630 nm, OD difference / Absorbance at the wavelength of 570 nm, OD value / Absorbance at the wavelength of 630 nm, OD value: 2 replicate wells; for Absorbance at the wavelength of 630 nm, OD value: reference wavelength
Protocol: 10-30 mL of CTLL-2 cell culture was taken and placed into a 50 mL sterile centrifuge tube, and centrifuged at 2000 r/min for 7 min to collect the cells. The supernatant was discarded, and the cells were washed twice with phosphate buffered saline (DPBS), which was added to about 25 mL each time, followed by centrifugation at 2000 r/min for 7 min. After one more wash with 25 mL of 1640 culture medium (centrifuged at 2000 r/min for 7 min), the cells were resuspended in a basic culture medium, and counted using a cell counting plate. The cell concentration was adjusted to about 6.0×10^5 cells/mL for later use.
50 μL/well of basic culture medium was pre-added to a 96-well cell culture plate. The standard solution and test sample solution were subsequently subjected to a 2-fold serial dilution, with 8 dilutions made for each, leaving 50 μL in each well, and 2 replicate wells were made for each gradient.
50 μL/well of the prepared cell suspension was added to the 96-well plate from low concentration to high concentration. The cell suspension was pipetted with a multichannel pipette until the cells were fully and uniformly mixed, and then added in the air.
The plate was incubated at a condition of 37±1° C. and 5±1% CO2 for 18-24 h.
20 μL/well of 5 mg/mL MTT solution was added, and the plate was incubated at a condition of 37±1° C. and 5±1% CO2 for 4-6 h.
150 μL/well of 15% SDS lysis solution was added, and the plate was incubated at a condition of 37±1° C. and 5±1% CO2 for 18-24 h.
After vibration and mixing uniformly, a color comparison was carried out on a microplate reader, with an experimental wavelength of 570 nm and a reference wavelength of 630 nm.
wherein: • C1 is the dilution factor of the test sample equivalent to the median effective dose of the standard; • C2 is the dilution factor of the median effective dose of the standard; • D1 is the pre-dilution factor of the test sample; • D2 is the pre-dilution factor of the standard;

IL-2: IL-2 protein provided by Beijing Jenkem Technology Co., Ltd.; standard of the CTLL-2 assay
Absorbance difference at wavelength of 570 nm-630 nm, OD difference (dilution factor 1): 0.3524 and 0.3592 | Absorbance at the wavelength of 570 nm, OD value (dilution factor 1, standard pre-diluted to 200 IU/mL, test sample to 1300 IU/mL): 0.6702 and 0.6885 | Absorbance at the wavelength of 570 nm, OD value (dilution factor 2): 0.6592 and 0.6745 | Absorbance difference at wavelength of 570 nm-630 nm, OD difference (dilution factor 2): 0.3653 and 0.3506 | Absorbance at the wavelength of 570 nm, OD value (dilution factor 4): 0.6445 and 0.6734 | Absorbance difference at wavelength of 570 nm-630 nm, OD difference (dilution factor 4): 0.3423 and 0.3562 | Absorbance at the wavelength of 570 nm, OD value (dilution factor 6): 0.5853 and 0.6337 | Absorbance difference at wavelength of 570 nm-630 nm, OD difference (dilution factor 6): 0.3100 and 0.3437 | Absorbance at the wavelength of 570 nm, OD value (dilution factor 16): 0.5018 and 0.5307 | Absorbance difference at wavelength of 570 nm-630 nm, OD difference (dilution factor 16): 0.2605 and 0.2783 | Absorbance at the wavelength of 570 nm, OD value (dilution factor 32): 0.3636 and 0.3411 | Absorbance difference at wavelength of 570 nm-630 nm, OD difference (dilution factor 32): 0.1821 and 0.1683 | Absorbance at the wavelength of 570 nm, OD value (dilution factor 64): 0.3093 and 0.3456 | Absorbance difference at wavelength of 570 nm-630 nm, OD difference (dilution factor 64): 0.1451 and 0.1468 | Absorbance at the wavelength of 570 nm, OD value (dilution factor 128): 0.3023 and 0.2655 | Absorbance difference at wavelength of 570 nm-630 nm, OD difference (dilution factor 128): 0.1260 and 0.1212 | dilution factor of the median effective dose (midpoint of fitted curve) (four-parameter fit of Table 4, standard pre-diluted to 200 IU/mL, test sample to 1300 IU/mL): 19.3893 | Absorbance at the wavelength of 630 nm, OD value (dilution factor 1): 0.3178 and 0.3293 | Absorbance at the wavelength of 630 nm, OD value (dilution factor 2): 0.2939 and 0.3239 | Absorbance at the wavelength of 630 nm, OD value (dilution factor 4): 0.3022 and 0.3172 | Absorbance at the wavelength of 630 nm, OD value (dilution factor 6): 0.2753 and 0.2900 | Absorbance at the wavelength of 630 nm, OD value (dilution factor 16): 0.2413 and 0.2524 | Absorbance at the wavelength of 630 nm, OD value (dilution factor 32): 0.1815 and 0.1728 | Absorbance at the wavelength of 630 nm, OD value (dilution factor 64): 0.1642 and 0.1988 | Absorbance at the wavelength of 630 nm, OD value (dilution factor 128): 0.1763 and 0.1443
